Assay results reported in BindingDB's records for 28126287 (University of Sargodha, 2017).

Biological target: Acetylcholinesterase (Electrophorus electricus, UniProt O42275)
Settings: pH 8

`CC1(c2cccc([N+](=O)[O-])c2)NC(=O)c2cc([N+](=O)[O-])cc([N+](=O)[O-])c2N1` (stereo unspecified) gave an IC50 of 6.2 µM.
